Read-outs that look alike come from different tables or passages of the source.
Target: NamPT recombinant protein (Homo sapiens, UniProt P43490)

By UniProt entry, the sequences of proteins in these tests, tags left out. Where a name states a change or a piece, a line headed by the entry shows the natural chain unless it says otherwise.
UniProt P43490: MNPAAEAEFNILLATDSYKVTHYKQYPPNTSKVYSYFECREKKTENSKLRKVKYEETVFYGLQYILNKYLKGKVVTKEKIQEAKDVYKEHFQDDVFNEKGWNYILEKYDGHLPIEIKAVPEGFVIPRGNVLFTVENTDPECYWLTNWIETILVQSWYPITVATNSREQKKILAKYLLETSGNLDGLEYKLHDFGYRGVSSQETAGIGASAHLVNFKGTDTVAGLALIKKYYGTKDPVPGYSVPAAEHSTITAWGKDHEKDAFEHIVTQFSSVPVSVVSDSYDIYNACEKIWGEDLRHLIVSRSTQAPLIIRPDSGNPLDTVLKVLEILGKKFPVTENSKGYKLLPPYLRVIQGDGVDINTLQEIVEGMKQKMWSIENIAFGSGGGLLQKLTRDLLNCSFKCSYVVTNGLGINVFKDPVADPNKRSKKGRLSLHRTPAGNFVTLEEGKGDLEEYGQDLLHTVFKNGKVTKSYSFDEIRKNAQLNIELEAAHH

O=C(/C=C/c1cccnc1)NCCCCC1CCN(C(=O)c2ccccc2)CC1 [FK866, N-[4-(1-benzoyl-4-piperidinyl)butyl]-3-(3-pyridinyl)-2E-propenamide]
reversible or irreversible inhibition of NamPT: irreversible inhibition | NamPT inhibition (4 nM (diluted 5 times)): not inhibited | NamPT inhibition (20 nM): full inhibition capacity
